Measured affinities in a library of Ab-91 heavy chain variants

Antigen: PDVDLGDISGINAS, a 14-residue peptide of the SARS-CoV-2 spike HR2 region.

The variants keep the light chain, the linker and the frameworks of Ab-91 (scFv order VL, a (GGGGS)3 linker, VH).
VL: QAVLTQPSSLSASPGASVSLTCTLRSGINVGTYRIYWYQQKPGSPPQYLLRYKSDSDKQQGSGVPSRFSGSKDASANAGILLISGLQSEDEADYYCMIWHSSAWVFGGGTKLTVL
VH: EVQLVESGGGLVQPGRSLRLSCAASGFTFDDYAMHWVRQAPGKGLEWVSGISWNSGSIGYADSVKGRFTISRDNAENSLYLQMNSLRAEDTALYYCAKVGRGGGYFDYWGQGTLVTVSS

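The library (AAYL51) carries one to three amino acid substitutions per variant, with no insertions or deletions. In AlphaSeq, yeast of one mating type display the scFv and yeast of the other type display the target. Mating (16 h, 30 °C) was followed by selection of diploids and sequencing of their barcodes. Scores were corrected for input abundance and mapped to Kd with protein pairs of known affinity run in the same pool. There are three technical replicates.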

Substitutions are numbered in sequence along the VH above, starting at 1 (not Kabat). Every variant below is changed at Y60 of the VH (sequential numbering). Numbers give log10(Kd / nM), so 0 is 1 nM and 3 is 1 µM. Smaller is tighter. Replicates are averaged; those with no signal do not enter the mean. A pair that was not seen in that replicate is written "nd"; this usually means weak binding, but a binder can also be missed.

For G56C I58G Y60Q, the assay gave nd, 5.94, nd. Variant S55V Y60N gave nd, nd, nd. Variant Y60L D62G G100D showed 4.14, 4.03, nd (mean 4.08). Variant Y60W R101H Y108K gave nd, nd, nd. With I51T Y60A F106M the result was nd, 5.04, nd. Variant D31Y S52V Y60W showed nd, nd, nd.

Variant A33Y W53R Y60W showed nd, nd, 4.33. Variant W53D Y60F G100E showed 4.04, nd, nd. For Y60C G104P, the assay gave nd, 3.72, nd. Variant G26V Y60M V99N showed 5.00, nd, 4.90 (mean 4.95). With M34K I51M Y60C the result was nd, 5.32, 4.70 (mean 5.01). For Y60I, the assay gave 4.01, nd, nd.

With Y60T S63E V99W the result was 2.61, 2.34, 2.83 (mean 2.59). Variant G59C Y60D gave nd, 5.37, nd. Variant Y60F Y105D gave 3.02, 2.71, 1.64 (mean 2.46). Variant G26L Y60H Y105D gave 4.77, 3.53, nd (mean 4.15). With D31E I58M Y60G the result was 4.78, nd, 4.23 (mean 4.51). Variant W53C Y60H G103H gave nd, nd, nd.

For Y60P A61H, the assay gave nd, 4.24, 5.11 (mean 4.67). With Y32H Y60E A61Q the result was 5.29, 3.66, nd (mean 4.47). For G59W Y60D D62T, the assay gave nd, nd, nd. For W53S G56L Y60A, the assay gave 3.39, nd, 3.00 (mean 3.20). With G50A W53L Y60L the result was nd, nd, nd. Variant D31Y Y60C D107I gave 4.66, 3.62, 2.92 (mean 3.73).

Variant D31Q S55T Y60H showed nd, nd, nd. For D31C Y60T S63V, the assay gave 4.42, nd, nd. Variant S55T Y60F Y108I gave nd, nd, nd. With N54H Y60Q Y108T the result was nd, nd, nd. For Y60V G104D, the assay gave 1.91, 2.00, 0.78 (mean 1.56). For Y60W S63D Y108W, the assay gave 4.97, nd, nd.

Variant T28E Y60V A61V gave 4.64, nd, 4.98 (mean 4.81). For G50K N54I Y60V, the assay gave nd, nd, nd. Variant S52D Y60P showed nd, nd, nd. With M34I S55W Y60F the result was nd, nd, nd. With S57T Y60S A61Q the result was nd, 5.28, nd. Variant Y60P G102E G104T showed nd, nd, nd.

Top 4 of the variants detected in all replicates, tightest first:

changes	log10 Kd (nM) by replicate	log10 Kd (nM), mean
Y60V G104D	1.91, 2.00, 0.78	1.56
Y60F Y105D	3.02, 2.71, 1.64	2.46
Y60T S63E V99W	2.61, 2.34, 2.83	2.59
D31Y Y60C D107I	4.66, 3.62, 2.92	3.73

As a blank, each scFv also met three strains without target: over library AAYL51, 21% of these pairings were detected, typically at 4.54 and seldom below 3.26. Parent in this assay: reference entry 1.86, copy in this library 0.88.

Data: MIT Lincoln Laboratory AlphaSeq set, Engelhart et al. 2022, doi:10.1038/s41597-022-01779-4, as distributed in FLAb.